AlphaSeq binding of Ab-14 light chain variants to a spike HR2 peptide

From the AlphaSeq antibody data of Engelhart et al. 2022 (doi:10.1038/s41597-022-01779-4), copy in the FLAb collection.

Target peptide (SARS-CoV-2 spike, HR2 region): PDVDLGDISGINAS

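Library AAYL50 holds single substitutions and randomly drawn double and triple substitutions in the CDRs. In AlphaSeq, yeast of one mating type display the scFv and yeast of the other type display the target. Binding brings cells together so that they mate, and sequencing counts the barcode pairs among the diploids. Each replicate has its own calibration line, from reference interactions of the BCL2 family. Mating was done three times.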

The variants keep the heavy chain, the linker and the frameworks of Ab-14 (scFv order VH, a 15-residue (Gly4Ser)3 linker, VL).
VH: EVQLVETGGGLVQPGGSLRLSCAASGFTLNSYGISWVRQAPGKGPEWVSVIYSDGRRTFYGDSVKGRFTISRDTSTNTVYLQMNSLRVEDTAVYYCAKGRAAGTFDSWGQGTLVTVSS
VL: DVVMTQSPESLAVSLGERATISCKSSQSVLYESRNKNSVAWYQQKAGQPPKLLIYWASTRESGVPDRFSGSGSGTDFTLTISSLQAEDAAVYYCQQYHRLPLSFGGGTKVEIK

Each variant is given by its three light chain CDRs, as the data file delimits them; those of the parent are KSSQSVLYESRNKNSVA, WASTRES, QQYHRLPLS. All variants listed here change Q95 of the VL, counted from its first residue. Values are apparent Kd, the geometric mean of the replicates that gave a signal; lower means stronger binding. An entry "no signal" has no value in the source: the pair was not observed among the diploids in any replicate. This suggests poor binding but is not conclusive.

For KSSQSVLYESRNKNSVA / WAWTRES / DQYARLPLS, the assay gave no signal (0 of 3 replicates). With KSSQSVSYESRNKNSVA / WASTRES / TQYHRLPLI the result was 71 µM (2 of 3 replicates). With KSSQSVCYESRNKNSVT / WASTRES / KQYHRLPLS the result was 38 µM (3 of 3 replicates). Variant KSSQSVLYESRNKNSSA / WASTRES / MQYHRLPLS gave no signal (0 of 3 replicates). Variant KSSQSVLYESRNKNSVA / WASTRLS / KQYHRLPSS showed 80 µM (3 of 3 replicates).

With KSSQSVLYESRNKNSVA / WASTRES / DQYMVLPLS the result was 220 µM (2 of 3 replicates). Variant KSSQSCLYESRNKNSVA / WASTAES / PQYHRLPLS showed no signal (0 of 3 replicates). For KSSQSWLYESRNENSVA / WASTRES / FQYHRLPLS, the assay gave 190 nM (3 of 3 replicates). For KSSQSVLYESRNKNSYA / WASTREI / GQYHRLPLS, the assay gave 38 µM (2 of 3 replicates). For KSSQSVLYESANKNSIA / WASTRES / SQYHRLPLS, the assay gave 4.8 nM (3 of 3 replicates).

For KSSQSVLSESRNKNSVA / WASTHES / YQYHRLPLS, the assay gave 58 µM (3 of 3 replicates). For KSSQSVLYESRNGNSVA / WYSTRES / IQYHRLPLS, the assay gave 37 µM (2 of 3 replicates). For KSSQSVLHFSRNKNSVA / WASTRES / GQYHRLPLS, the assay gave no signal (0 of 3 replicates). With KSSQSVLYKSRNKNSVA / WASTRES / MQYHRLGLS the result was no signal (0 of 3 replicates). Variant KSSLSVLYEHRNKNSVA / WASTRES / WQYHRLPLS gave 3.0 µM (1 of 3 replicates).

Variant KSSQSVLYESPNPNSVA / WASTRES / NQYHRLPLS showed 16 nM (3 of 3 replicates). For KSSQSVLYHSRGKNSVA / WASTRES / CQYHRLPLS, the assay gave no signal (0 of 3 replicates). For GSSQSVLYESRNKNSQA / WASTRES / TQYHRLPLS, the assay gave 5.3 µM (2 of 3 replicates). For KMSQSVLYESRNKNSVA / WASTRES / FQYHLLPLS, the assay gave 11 nM (3 of 3 replicates). Variant KSSQSYLYESRNKNIVA / WASTRES / NQYHRLPLS showed 2.1 µM (2 of 3 replicates).

With KSSQSVLYERRNKNSVA / WASTRES / KQYHRLHLS the result was 170 nM (3 of 3 replicates). With KSSQSVLYESRNKNSVA / WASTRES / CPYDRLPLS the result was 18 nM (3 of 3 replicates). Variant KHSQSVLYESRNKNSVA / WASTRES / FFYHRLPLS gave 3.2 nM (3 of 3 replicates). With KSGQSVLYESQNKNSVA / WASTRES / EQYHRLPLS the result was 8.2 nM (3 of 3 replicates). For KSSQSVLYESRNKNSVA / WASTRTD / AQYHRLPLS, the assay gave 290 nM (3 of 3 replicates).

Variant KSSQSWLYESRNKNSVA / WASTRES / PQYHRPPLS showed no signal (0 of 3 replicates). With KSSQSVLYESRNKNSVA / TASTRES / EQYHRFPLS the result was 52 nM (3 of 3 replicates). With KSSGSVLYESRNKNSVA / WASTRYS / VQYHRLPLS the result was no signal (0 of 3 replicates). Variant KSSQSVLYESNNKNSVA / WASTRES / HQYHRLPLL gave no signal (0 of 3 replicates). With KSSQSVLYNSRNKNSVA / WASTRES / PQYHRLPLS the result was 1.8 µM (1 of 3 replicates).

For KSSQSVIYEQRNKNSVA / WASTRES / DQYHRLPLS, the assay gave 84 µM (2 of 3 replicates). Variant KSSQSVLWESRNKNSVA / WASTRES / MQYHRPPLS showed 370 µM (2 of 3 replicates). For KSSQSVLYESRNWNSVA / WASTRES / RQYFRLPLS, the assay gave 6.1 nM (3 of 3 replicates).

Three control strains display no target. For library AAYL50, 18% of the pairings with them gave a signal, with a median of 15 µM and one signal in twenty below 970 nM, so weak values seen in few replicates may be background. For reference, the parent read 4.4 nM as the reference entry and 48 nM as a member of this library.